# Test results: PubChem BioAssay AID1645854 (Buhrlage Lab, Dana-Farber Cancer Institute and Novartis …, 2021)
# By UniProt entry, the sequences of proteins in these tests, tags left out.
# UniProt Q93009, whole entry: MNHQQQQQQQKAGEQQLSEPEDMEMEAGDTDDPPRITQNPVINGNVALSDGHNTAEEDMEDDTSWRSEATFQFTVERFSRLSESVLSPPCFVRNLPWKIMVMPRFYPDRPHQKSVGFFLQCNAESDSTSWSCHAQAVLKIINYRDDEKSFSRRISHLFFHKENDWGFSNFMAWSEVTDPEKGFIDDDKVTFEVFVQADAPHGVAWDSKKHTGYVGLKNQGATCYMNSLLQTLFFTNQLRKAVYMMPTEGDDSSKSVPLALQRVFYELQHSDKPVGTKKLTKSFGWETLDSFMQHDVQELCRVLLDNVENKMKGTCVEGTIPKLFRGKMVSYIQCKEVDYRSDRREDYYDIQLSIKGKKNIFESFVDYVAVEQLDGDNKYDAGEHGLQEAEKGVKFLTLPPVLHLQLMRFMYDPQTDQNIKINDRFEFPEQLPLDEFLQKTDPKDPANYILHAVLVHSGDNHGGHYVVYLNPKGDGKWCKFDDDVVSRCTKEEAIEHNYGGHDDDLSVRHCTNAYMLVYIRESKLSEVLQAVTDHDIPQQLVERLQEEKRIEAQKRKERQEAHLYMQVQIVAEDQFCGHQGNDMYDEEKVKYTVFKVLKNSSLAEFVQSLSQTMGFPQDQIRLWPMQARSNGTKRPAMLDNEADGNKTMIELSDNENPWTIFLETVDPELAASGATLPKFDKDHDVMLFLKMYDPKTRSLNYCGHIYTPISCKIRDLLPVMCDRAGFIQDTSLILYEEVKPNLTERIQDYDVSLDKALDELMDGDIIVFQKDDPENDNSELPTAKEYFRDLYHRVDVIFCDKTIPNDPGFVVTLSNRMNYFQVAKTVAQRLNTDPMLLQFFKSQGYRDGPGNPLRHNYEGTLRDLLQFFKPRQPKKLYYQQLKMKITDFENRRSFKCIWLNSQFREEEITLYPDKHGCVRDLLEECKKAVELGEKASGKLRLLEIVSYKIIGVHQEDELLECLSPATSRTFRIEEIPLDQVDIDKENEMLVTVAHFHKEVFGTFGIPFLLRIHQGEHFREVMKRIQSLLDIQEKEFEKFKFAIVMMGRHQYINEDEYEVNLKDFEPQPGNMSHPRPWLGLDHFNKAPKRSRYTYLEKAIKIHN
# This is a selection; strong and weak results do not stand in their true shares. Some tests of the compounds listed are not included; inactive here does not mean inactive elsewhere. Calls of active or inactive are those of the source. Cut-off read from the data, not from the text of the source: active = inhibition above about 30%; inactive = the rest.
# Biological target: Ubiquitin carboxyl-terminal hydrolase 7 (Homo sapiens) (UniProt Q93009)
# Assay: blocks human USP7 ubiquitin-rhodamine cleavage (AID 1645854)
# Conditions: purified USP7, Ub-rhodamine cleavage fluorescence; at 20 µM; active compounds read high
row,Compound,inhibition
1,O=C(NCC1(N2CCCCC2)CCCCC1)c1ccc2c(c1)OCCO2,inactive: 5.98%
2,COc1ccc(C(=O)NCC2(N3CCOCC3)CCCCC2)cc1,inactive: -0.0416%
3,COc1cccc(C(=O)NCC2(N3CCCCC3)CCCCC2)c1,inactive: -6.63%
4,Cc1c(C(=O)NCC2(N(C)C)CCCCC2)oc2ccc(F)cc12,inactive: 0.771%
5,Cc1c(C(=O)NCC2(N(C)C)CCCCC2)oc2ccccc12,inactive: 0.628%
6,O=C(NCC1(N2CCOCC2)CCCCC1)c1ccccc1F,inactive: -1.3%
7,O=C(NCC1(N2CCCCC2)CCCCC1)c1ccc2ccccc2c1,inactive: -5.37%
